The results in this text go back to US11214540B2, “Compositions for treating neurodegenerative diseases” (COGNITION THERAPEUTICS, INC., priority 2017, dated 2022).

Each structure is given as a SMILES string.

By half-life is commonly meant the time needed for the level to fall by half in the phase considered. The low end stands for rapid decline, the high end for slow decline.

The data set is described as follows: Mouse liver microsome (MLM) stability. The following applies: microsomes. (In general: Microsomes from liver hold many membrane-bound enzymes, among them those of drug oxidation.)

As for `COc1cc(CCC(C)NCc2ccc(C(F)(F)F)cc2)ccc1O` (stereo not shown) [4-(3-(4-(trifluoromethyl)benzylamino)butyl)-2-methoxyphenol, reference compound], the half-life came out at 16 min.
